Chains of the proteins cited; added tags and fusions are not shown. Lines headed by an entry give the natural chain unless they say otherwise; changes in a name come on top.
UniProt P08581: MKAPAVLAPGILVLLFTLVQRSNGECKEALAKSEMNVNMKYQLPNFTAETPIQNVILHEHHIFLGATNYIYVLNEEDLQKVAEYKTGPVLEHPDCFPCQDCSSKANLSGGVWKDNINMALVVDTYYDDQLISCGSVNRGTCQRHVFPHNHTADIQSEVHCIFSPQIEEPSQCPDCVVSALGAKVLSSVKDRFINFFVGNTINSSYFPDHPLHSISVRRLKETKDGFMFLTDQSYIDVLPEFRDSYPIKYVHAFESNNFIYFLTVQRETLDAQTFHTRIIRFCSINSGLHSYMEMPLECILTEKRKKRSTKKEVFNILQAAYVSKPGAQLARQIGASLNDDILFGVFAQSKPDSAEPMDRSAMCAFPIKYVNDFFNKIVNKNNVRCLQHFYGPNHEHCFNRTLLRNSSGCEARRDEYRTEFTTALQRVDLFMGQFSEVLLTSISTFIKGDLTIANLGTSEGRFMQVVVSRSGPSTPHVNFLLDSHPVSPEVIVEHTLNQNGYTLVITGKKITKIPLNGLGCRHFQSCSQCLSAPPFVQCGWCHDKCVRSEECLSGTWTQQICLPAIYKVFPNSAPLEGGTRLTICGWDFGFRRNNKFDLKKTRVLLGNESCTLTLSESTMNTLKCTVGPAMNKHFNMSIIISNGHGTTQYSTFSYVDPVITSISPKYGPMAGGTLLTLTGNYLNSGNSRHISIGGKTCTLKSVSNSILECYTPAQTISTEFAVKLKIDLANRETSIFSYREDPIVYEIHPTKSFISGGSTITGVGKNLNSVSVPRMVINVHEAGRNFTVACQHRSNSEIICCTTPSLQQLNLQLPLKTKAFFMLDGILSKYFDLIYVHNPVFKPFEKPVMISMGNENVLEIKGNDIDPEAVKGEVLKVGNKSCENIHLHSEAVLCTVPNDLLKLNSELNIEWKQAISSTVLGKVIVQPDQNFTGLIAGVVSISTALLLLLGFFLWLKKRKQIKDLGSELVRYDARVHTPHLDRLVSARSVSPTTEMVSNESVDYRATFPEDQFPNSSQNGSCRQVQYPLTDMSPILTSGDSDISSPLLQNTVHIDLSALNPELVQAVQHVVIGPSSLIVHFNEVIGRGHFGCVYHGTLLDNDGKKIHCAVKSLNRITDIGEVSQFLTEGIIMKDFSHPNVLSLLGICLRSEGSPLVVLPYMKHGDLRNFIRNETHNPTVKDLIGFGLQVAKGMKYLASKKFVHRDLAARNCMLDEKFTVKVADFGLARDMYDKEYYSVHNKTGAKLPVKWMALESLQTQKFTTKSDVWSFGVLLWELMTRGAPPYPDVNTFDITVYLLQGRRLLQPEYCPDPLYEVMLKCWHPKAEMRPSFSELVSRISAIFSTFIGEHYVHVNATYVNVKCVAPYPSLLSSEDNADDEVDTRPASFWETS

According to ChEMBL document CHEMBL1153352, “Syntheses of novel 2,3-diaryl-substituted 5-cyano-4-azaindoles exhibiting c-Met inhibition activity” (Bioorg Med Chem Lett, 2009):

These molecules were tested against Hepatocyte growth factor receptor (Homo sapiens, UniProt P08581) (assay: Inhibition of GST-tagged human c-Met expressed in SF9 cells at 10 uM).

Activity | Structure (SMILES)
inactive | N#Cc1ccc2[nH]c(-c3ccncc3)c(-c3cnc(N)nc3)c2n1
inactive | CS(=O)(=O)c1ccc(-c2c(-c3ccncc3)[nH]c3ccc(C#N)nc23)cc1
inactive | N#Cc1ccc2[nH]c(-c3ccncc3)c(-c3ccncc3)c2n1
inactive | N#Cc1ccc2[nH]c(-c3ccccc3)c(-c3ccc(F)cc3)c2n1

Calls of active or inactive are those of the source. The rule behind the calls is not given here.
